{"source": "patent US20050089932A1", "about": "“Novel proteins with targeted binding” (Avidia Research Institute, priority 2001, published 2005)", "origin": "cited, not measured here", "data": [{"conditions": "commercial drugs; cited from earlier work", "units": {"Human T1/2": "h"}, "values": [{"substance": "Herceptin: Her2 Antibody", "Human T1/2": 144}, {"substance": "Pegasys: rIFN-a-PEG", "Human T1/2": 78}, {"substance": "Rebif: rIFN-b", "Human T1/2": 69}]}]}
